Only a part is listed here, and it is no random draw. Some salts and complexes are drawn in separate pieces, as the source files them; their charges need not balance. A structure can be active in one record and inactive in another. Activity calls are given as the source filed them. Cut-off read from the data, not from the text of the source: active = growth inhibition above about 70%; inactive = the rest.

The test in a line: NCI Yeast Anticancer Drug Screen. Data for the sgs1 strain (AID 173).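 Note: 0% = growth of vehicle-only control cultures.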 To be noted: S. cerevisiae sgs1 mutant, active compounds read high. As to the method: Growth inhibition of yeast strains with defined genetic alterations is measured as a screen for potential anti-cancer activity. Selected strains with alterations in DNA damage repair or cell cycle control were exposed to compounds and growth inhibition was measured relative to vehicle treated controls. The strain used in this assay is sgs1

Take `O=[N+]([O-])C(F)(COCC(O)CO)[N+](=O)[O-]` (centres undefined): the growth inhibition runs as follows: (at 1.2 µM) inactive: 13%; (at 3.7 µM) inactive: 24%; (at 11.0 µM) inactive: 54%; (at 33.0 µM) active: 79%; (at 100.0 µM) active: 94%.
Regarding `Cc1c2ccccc2cc2ccccc12.O=[N+]([O-])c1cc([N+](=O)[O-])c(O)c([N+](=O)[O-])c1`, the growth inhibition (at 1.2 µM) was inactive: -2%; the growth inhibition (at 3.7 µM) is inactive: 4%; the growth inhibition (at 11.0 µM) was inactive: 20%; the growth inhibition (at 33.0 µM) is active: 72%; the growth inhibition (at 100.0 µM) is active: 96%.
As to `[Au+].[N-]=[N+]=N.c1ccc([PH+](c2ccccc2)c2ccccc2)cc1`, the growth inhibition (at 1.2 µM) was inactive: 12%, the growth inhibition (at 3.7 µM) was active: 97%, the growth inhibition (at 33.0 µM) was active: 96% and the growth inhibition (at 100.0 µM) was active: 92%.
As to `Cc1ccc2ccc3ccc4ccccc4c3c2c1.O=C1c2cc([N+](=O)[O-])ccc2-c2c1cc([N+](=O)[O-])cc2[N+](=O)[O-]`, the growth inhibition by setting is: (at 1.2 µM) inactive: 0%; (at 3.7 µM) inactive: 1%; (at 11.0 µM) inactive: 5%; (at 33.0 µM) inactive: 13%; (at 100.0 µM) inactive: 29%.
With `[Au].[C-]#N.[C-]#N`, the growth inhibition reads like this: (at 1.2 µM) inactive: 16%; (at 3.7 µM) inactive: 31%; (at 11.0 µM) inactive: 31%; (at 33.0 µM) inactive: 35%; (at 100.0 µM) inactive: 38%.
Turning to `Nc1ccccc1.O=[N+]([O-])c1cc([N+](=O)[O-])cc([N+](=O)[O-])c1`, the growth inhibition (at 1.2 µM) was inactive: 2%; the growth inhibition (at 3.7 µM) was inactive: 10%; the growth inhibition (at 11.0 µM) is inactive: 52%; the growth inhibition (at 33.0 µM) was active: 99%; the growth inhibition (at 100.0 µM) is active: 99%.
Consider `Cc1cc2ccccc2cc1C.O=[N+]([O-])c1cc([N+](=O)[O-])cc([N+](=O)[O-])c1`, for which the growth inhibition (at 1.2 µM) was inactive: 1%; the growth inhibition (at 3.7 µM) is inactive: 1%; the growth inhibition (at 11.0 µM) is inactive: 7%; the growth inhibition (at 33.0 µM) was inactive: 26%; the growth inhibition (at 100.0 µM) was active: 88%.
In the case of `[Au+].[Au+].c1ccc([PH+](c2ccccc2)c2ccccc2)cc1.c1ccc([PH+](c2ccccc2)c2ccccc2)cc1.n1n[n-]c(-c2nnn[n-]2)n1`, the growth inhibition runs as follows: (at 1.2 µM) inactive: 39%; (at 3.7 µM) inactive: 66%; (at 11.0 µM) active: 98%; (at 33.0 µM) active: 99%; (at 100.0 µM) active: 99%.
On to `COc1ccccc1N.O=[N+]([O-])c1cc([N+](=O)[O-])cc([N+](=O)[O-])c1`, for which the growth inhibition is inactive: 2% (at 1.2 µM); inactive: 14% (at 3.7 µM); inactive: 64% (at 11.0 µM); active: 99% (at 33.0 µM); active: 99% (at 100.0 µM).

For the origin of these results see PubChem BioAssay (NCI).
